# Measurements from US10280149B2, “Therapeutic compounds and uses thereof” (GENENTECH, INC., priority 2015, dated 2019).
# The chains behind the UniProt entries cited, without tags or fusion partners. Where a name states a change or a piece, a line headed by the entry shows the natural chain unless it says otherwise.
# UniProt Q8NHM5: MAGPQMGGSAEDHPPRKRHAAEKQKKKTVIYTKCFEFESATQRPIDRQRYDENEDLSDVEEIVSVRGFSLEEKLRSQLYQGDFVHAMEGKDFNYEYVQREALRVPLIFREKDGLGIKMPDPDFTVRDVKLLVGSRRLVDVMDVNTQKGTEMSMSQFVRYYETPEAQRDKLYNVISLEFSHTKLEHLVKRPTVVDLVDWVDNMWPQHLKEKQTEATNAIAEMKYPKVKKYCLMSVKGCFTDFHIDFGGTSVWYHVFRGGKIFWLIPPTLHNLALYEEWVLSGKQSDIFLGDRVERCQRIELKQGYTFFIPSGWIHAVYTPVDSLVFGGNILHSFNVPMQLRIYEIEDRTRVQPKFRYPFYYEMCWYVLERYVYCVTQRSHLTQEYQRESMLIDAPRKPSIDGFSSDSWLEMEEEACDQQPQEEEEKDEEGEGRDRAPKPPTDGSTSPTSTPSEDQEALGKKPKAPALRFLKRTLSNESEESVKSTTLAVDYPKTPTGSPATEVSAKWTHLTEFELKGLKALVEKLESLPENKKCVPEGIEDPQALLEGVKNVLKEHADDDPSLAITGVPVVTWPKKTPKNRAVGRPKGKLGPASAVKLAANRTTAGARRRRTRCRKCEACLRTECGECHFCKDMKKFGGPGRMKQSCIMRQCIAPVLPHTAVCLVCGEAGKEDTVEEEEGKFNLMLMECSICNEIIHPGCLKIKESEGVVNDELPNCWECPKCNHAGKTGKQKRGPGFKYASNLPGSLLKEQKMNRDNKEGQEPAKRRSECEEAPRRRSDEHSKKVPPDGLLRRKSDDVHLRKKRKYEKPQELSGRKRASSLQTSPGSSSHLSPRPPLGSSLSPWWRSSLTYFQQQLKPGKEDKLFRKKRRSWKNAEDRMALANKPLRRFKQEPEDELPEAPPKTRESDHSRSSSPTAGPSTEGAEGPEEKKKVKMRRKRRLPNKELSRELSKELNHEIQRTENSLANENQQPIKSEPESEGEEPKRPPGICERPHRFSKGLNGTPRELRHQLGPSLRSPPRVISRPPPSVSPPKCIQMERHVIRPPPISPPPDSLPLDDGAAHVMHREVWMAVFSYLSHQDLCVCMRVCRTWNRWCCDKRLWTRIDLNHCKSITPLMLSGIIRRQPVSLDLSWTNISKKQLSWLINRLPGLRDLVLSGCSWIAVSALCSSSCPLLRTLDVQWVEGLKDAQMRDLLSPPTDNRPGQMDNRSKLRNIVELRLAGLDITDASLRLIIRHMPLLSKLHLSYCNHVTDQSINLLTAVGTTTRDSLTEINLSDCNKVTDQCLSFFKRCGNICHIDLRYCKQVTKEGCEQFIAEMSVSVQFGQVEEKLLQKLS
# Structures can show the parent of a compound that is named as a salt.
# Molecular target: Full length KDM2B (Homo sapiens (Human), UniProt Q8NHM5)
# Assay: KDM2B TR-FRET assay for determining inhibitor IC50
# Assay type: biochemical
# Settings: KDM2B HTRF IC50, TR-FRET (HTRF), biotin-H3K36me2 peptide substrate, 2-OG 0.3 μM or 6 μM
# Text: KDM2B TR-FRET Assay for Determining Inhibitor IC50
# The KDM2B TR-FRET Assay described above represents an additional embodiment of the invention.
row,IC50 [nM],Structure (SMILES)
1,182,"O=C(c1ccc2cc(-c3ccccn3)ccc2c1)C1CCCN(CC2CC2)C1 (stereo not drawn) [Example 168, (1-(cyclopropylmethyl)piperidin-3-yl)(6-(pyridin-2-yl)naphthalen-2-yl)methanone]"

# Same assay, conditions: TR-FRET (HTRF), biotin-H3K36me2 peptide substrate, 2-OG 0.3 μM or 6 μM; read-out: KDM2B HTRF IC50
row,Structure (SMILES),IC50 [nM]
1,"O=C(c1ccc2cc(Br)ccc2c1)[C@@H]1CCCN(CC2CC2)C1 (stereo in doubt) [Example 131a, (6-bromonaphthalen-2-yl)(1-(cyclopropylmethyl)piperidin-3-yl)methanone]",226
2,"O=C(c1ccc2cc(Br)ccc2c1)[C@H]1CCCN(CC2CC2)C1 (stereo in doubt) [Example 131b, (6-bromonaphthalen-2-yl)(1-(cyclopropylmethyl)piperidin-3-yl)methanone]",181
3,"Cc1ccc2cc(C(=O)C3CCCN(CC4CC4)C3)ccc2c1 (stereo not drawn) [Example 167, (1-(cyclopropylmethyl)piperidin-3-yl)(6-methylnaphthalen-2-yl)methanone]",171
4,"CN(C)c1ccc2cc(C(=O)C3CCCN(CC4CC4)C3)ccc2c1 (stereo not drawn) [Example 172, (1-(cyclopropylmethyl)piperidin-3-yl)(6-(dimethylamino)naphthalen-2-yl)methanone hydrochloride]",316
5,"CC(=O)Nc1ccc2cc(C(=O)C3CCCN(CC4CC4)C3)ccc2c1 (stereo not drawn) [Example 174, N-(6-(1-(cyclopropylmethyl)piperidine-3-carbonyl)naphthalen-2-yl)acetamide]",1800
